US20170239239A1, “Method for Inducing a Sustained Immune Response” (Immune Therapeutics Inc., priority 2016, published 2017)

Test system: Hashimoto's
Assay: Case reports, Hashimoto's thyroiditis
Details: person; from 300

O=C1CC[C@@]2(O)[C@H]3Cc4ccc(O)c5c4[C@@]2(CCN3CC2CC2)[C@H]1O5 [Immediate release naltrexone, naltrexone]
B12: 1785
